The results in this text go back to ChEMBL document CHEMBL1147701, “Novel 4-anilinoquinazolines with C-6 carbon-linked side chains: synthesis and structure-activity relationship of a series of potent, orally active, EGF receptor tyrosine kinase inhibitors” (Bioorg Med Chem Lett, 2006).

By UniProt entry, the sequences of proteins in these tests, tags left out. Where a name states a change or a piece, a line headed by the entry shows the natural chain unless it says otherwise.
UniProt P12931: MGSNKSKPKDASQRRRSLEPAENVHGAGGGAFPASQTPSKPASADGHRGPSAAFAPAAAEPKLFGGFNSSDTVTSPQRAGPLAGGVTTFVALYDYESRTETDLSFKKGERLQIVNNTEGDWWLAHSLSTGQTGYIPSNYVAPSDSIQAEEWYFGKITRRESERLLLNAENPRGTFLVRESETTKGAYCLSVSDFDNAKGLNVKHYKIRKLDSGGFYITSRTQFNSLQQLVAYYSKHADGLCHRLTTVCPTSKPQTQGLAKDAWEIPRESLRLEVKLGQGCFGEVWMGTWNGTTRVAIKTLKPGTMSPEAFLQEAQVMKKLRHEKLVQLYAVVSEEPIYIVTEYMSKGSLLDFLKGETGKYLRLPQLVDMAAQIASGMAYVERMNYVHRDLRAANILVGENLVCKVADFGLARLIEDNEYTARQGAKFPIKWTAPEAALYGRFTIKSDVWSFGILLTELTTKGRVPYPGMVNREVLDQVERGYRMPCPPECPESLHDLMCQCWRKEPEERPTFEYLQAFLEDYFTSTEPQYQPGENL
UniProt P49841: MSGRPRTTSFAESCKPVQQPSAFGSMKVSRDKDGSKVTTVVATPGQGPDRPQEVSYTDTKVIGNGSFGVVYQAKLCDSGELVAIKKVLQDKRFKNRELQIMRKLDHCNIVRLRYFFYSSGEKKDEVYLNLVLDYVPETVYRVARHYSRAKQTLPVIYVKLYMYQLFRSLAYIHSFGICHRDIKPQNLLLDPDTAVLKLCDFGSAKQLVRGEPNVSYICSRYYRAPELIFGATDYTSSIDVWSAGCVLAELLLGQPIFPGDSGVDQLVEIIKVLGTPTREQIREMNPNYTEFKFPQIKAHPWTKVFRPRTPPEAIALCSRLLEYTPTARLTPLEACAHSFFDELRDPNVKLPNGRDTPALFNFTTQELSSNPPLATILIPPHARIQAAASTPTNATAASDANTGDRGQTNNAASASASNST
UniProt P06239: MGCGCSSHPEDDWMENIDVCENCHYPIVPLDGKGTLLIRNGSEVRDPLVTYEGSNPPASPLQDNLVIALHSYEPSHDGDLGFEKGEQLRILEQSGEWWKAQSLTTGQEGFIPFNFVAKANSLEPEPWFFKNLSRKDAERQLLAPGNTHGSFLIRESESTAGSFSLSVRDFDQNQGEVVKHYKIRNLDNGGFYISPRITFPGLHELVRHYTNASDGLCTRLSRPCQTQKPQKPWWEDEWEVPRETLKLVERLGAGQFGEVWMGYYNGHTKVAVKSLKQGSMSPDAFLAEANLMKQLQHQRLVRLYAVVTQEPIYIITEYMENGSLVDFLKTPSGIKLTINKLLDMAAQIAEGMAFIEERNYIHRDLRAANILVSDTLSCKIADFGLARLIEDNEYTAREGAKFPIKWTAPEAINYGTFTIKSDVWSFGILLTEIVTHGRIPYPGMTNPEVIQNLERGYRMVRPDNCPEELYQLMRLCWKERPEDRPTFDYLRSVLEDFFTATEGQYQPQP

Assay [1] addresses Proto-oncogene tyrosine-protein kinase Src (Homo sapiens, UniProt P12931). Nature of the assay: Inhibition of Src.
The target of assay [2] is Glycogen synthase kinase-3 beta (Homo sapiens, UniProt P49841). Nature of the assay: Inhibition of GSK3-beta.
For assay [3], the target named is Tyrosine-protein kinase Lck (Homo sapiens, UniProt P06239).
Assay [4] deals with T1, Serine/threonine-protein kinase Chk1 (Homo sapiens, UniProt O14757).
T1 sequence (O14757 whole entry): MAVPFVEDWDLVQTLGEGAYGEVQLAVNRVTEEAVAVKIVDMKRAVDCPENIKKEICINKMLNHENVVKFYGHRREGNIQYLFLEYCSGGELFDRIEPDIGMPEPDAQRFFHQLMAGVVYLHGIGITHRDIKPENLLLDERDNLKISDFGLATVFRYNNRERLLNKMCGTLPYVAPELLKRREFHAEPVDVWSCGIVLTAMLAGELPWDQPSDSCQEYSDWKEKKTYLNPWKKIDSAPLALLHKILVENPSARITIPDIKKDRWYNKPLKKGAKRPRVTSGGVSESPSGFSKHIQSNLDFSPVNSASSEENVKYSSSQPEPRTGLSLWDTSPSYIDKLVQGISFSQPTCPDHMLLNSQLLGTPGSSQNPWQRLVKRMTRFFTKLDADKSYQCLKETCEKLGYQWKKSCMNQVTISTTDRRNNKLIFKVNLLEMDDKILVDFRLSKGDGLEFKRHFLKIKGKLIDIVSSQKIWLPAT
Nature of the assay: Inhibition of CHK1.

Broadly, the IC50 is the concentration that inhibits the measured activity by half. Turning to `COc1cc2ncnc(Nc3cccc(Cl)c3F)c2cc1CN(C)CC(N)=O`, the IC50 in assay [1], in assay [2] and in assay [3] was more than 10 µM throughout.

Take `COc1cc2ncnc(Nc3cccc(Cl)c3F)c2cc1CN[C@H](C)C(N)=O`: the IC50 in assay [2] and in assay [4] was more than 10 µM in each case.
